This is an account of results in US10011573B2, “Human androgen receptor DNA-binding domain (DBD) compounds as therapeutics and methods for their use” (The University of British Columbia, priority 2014, dated 2018).

Chains of the proteins cited; added tags and fusions are not shown.
UniProt P10275, whole entry T878A: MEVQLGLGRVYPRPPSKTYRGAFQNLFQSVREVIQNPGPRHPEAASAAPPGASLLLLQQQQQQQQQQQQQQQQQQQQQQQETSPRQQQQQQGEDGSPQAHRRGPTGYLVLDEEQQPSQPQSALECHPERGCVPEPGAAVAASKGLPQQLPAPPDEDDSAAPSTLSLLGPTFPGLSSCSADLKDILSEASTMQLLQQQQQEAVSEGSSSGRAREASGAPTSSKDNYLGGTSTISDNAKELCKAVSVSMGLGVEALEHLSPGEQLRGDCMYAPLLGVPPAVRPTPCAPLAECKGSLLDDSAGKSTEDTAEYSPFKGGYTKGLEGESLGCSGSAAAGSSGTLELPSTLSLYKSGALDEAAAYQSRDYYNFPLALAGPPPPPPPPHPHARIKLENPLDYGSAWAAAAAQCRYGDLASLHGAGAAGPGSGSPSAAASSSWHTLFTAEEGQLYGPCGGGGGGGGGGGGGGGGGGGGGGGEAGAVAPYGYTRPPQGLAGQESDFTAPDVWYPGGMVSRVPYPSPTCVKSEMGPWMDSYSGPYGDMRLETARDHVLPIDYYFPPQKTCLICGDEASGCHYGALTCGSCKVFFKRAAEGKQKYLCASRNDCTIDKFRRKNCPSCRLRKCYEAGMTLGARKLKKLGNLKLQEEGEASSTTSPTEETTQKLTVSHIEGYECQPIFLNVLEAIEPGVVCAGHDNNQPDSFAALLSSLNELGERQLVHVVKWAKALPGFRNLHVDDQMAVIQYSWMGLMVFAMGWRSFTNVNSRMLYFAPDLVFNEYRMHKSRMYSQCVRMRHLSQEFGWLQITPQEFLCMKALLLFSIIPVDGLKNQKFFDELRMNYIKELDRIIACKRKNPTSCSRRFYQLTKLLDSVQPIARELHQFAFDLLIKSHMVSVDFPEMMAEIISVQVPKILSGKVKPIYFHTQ

Molecules are shown by their SMILES.

Assay [1] deals with AR binding to PSA and FKBP5 enhancer (Homo sapiens, UniProt P10275, T878A). Briefly: Chromatin immunoprecipitation (ChIP) in LNCaP cells. The assay is classed as cell-based.
The target of a further assay is androgen receptor (AR) (Homo sapiens, UniProt P10275, T878A). Kind of assay: eGFP cellular AR transcription assay (LNCaP eGFP cells, LN-ARR2PB-eGFP). Particulars: for IC50: read-out: eGFP IC50.
For a further assay, the system named is PSA. Briefly: Prostate-specific antigen (PSA) assay, secreted PSA from the eGFP assay plates. To be noted: read-out: PSA IC50; Series 1.

What is called IC50 is the concentration that inhibits the measured activity by half.

On to `O=C(Nc1ncc(-c2ccccc2)s1)C1CSCCS1` (stereo not shown), for which the “AR pulldown of the PSA and FKBP5 enhancer” value in assay [1] is “reduced AR pulldown”. In addition, the concentration for half-maximal inhibition (IC50) at androgen receptor (AR) stood at 15.5 µM.

`Cn1ccn(-c2ccc(N3CCOCC3)s2)c1=O`: the IC50 on androgen receptor (AR) came to 6.3 µM.

Take `N#Cc1ccc(-c2ccc(N3CCOCC3)s2)s1`: at androgen receptor (AR), the “% Inhibition (3 μM)” value is 52.98% and the IC50 came to 11.4 µM.

Consider `c1ccc(-c2cc(N3CCOCC3)cs2)cc1`, for which the 50% inhibitory concentration (IC50) with PSA came out at 0.837 µM. Besides, the “% Inhibition (3 μM)” value on androgen receptor (AR) stood at 110.53%.

For the molecule `CCC(C)C(=O)Nc1ncc(-c2ccccc2)s1` (stereo not shown), on androgen receptor (AR), the IC50 was determined as 13.3 µM.

With `Brc1scc(-c2nccc(N3CCOCC3)n2)c1Br`, at androgen receptor (AR), the IC50 was 8.65 µM.

With `c1cc2ncn(-c3csc(N4CCOCC4)n3)c2cn1`, the IC50 on androgen receptor (AR) came out at 2.8 µM.

Consider `Brc1ncn(-c2nccc(N3CCOCC3)n2)c1Br`, for which the IC50 turned out to be 0.88 µM in the assay with PSA and 1.5 µM at androgen receptor (AR).

Regarding `Brc1ncn(-c2cnc(N3CCOCC3)[nH]2)c1Br`, on androgen receptor (AR), the IC50 is 0.05 µM.
